Source: patent publication US12714711B2, “Salts of neuroceuticals and uses thereof” (priority 2020, dated 2026)
Where two headings read alike, the source gives them in different places.

Key:
[1] = in vivo; settings: male, Sprague-Dawley, rat, po, 60 mg/kg
Procedure: All animals used in this study were adult rats (at least 2.5 months of age).
Male Sprague-Dawley rats having a bodyweight between 250-300 g were randomly assigned to two groups. […] The chemicals were suspended in sesame oil and administrated by single oral gavage at 2 ml/kg. All rats were fasted overnight with free access to water before oral administration of the testing compositions. On the day of dosing, the blood samples were collected at 0 min (prior to dosing), and 0.25, 0.5, 1, 2, 4, 6, 8, and 24 hr post-dosing.
Blood samples were collected from rat jugular veins and transferred into tubes coated with sodium heparin. To obtain plasma, the blood samples were centrifuged at 2,500×g for 15 min at 4° C. and the supernatants were collected and kept frozen in a freezer at −80° C., until they were analyzed.
The plasma concentration of donepezil was determined by LC/MS. The chromatographic separation was carried out on a 5 μm EVO C8 100 Å LC column (100×4.6 mm, Kinetex®). The mobile phase was 0.1% formic acid in water and acetonitrile:methanol=8:2 set as gradient. Flow rate used was 0.3 mL/min. Column temperature was maintained at 40° C. and the injection volume was 30 μL.
The pharmacokinetic parameters were calculated using non-compartmental analysis (NCA) with WinNonlin to assess the systemic exposure of donepezil in rats.

[2] = mice
Procedure: The testing compounds were administered to mice either through intraperitoneal (i.p.) injection or oral gavage before analyzing blood glucose levels.
For the acute study, two cohorts of mice were used.
For repeated-dose study, mice were randomly assigned into five groups as listed below. • Group 1: Vehicle control • Group 2: Clz (3 mg/kg) • Group 3: Clz:NA 1:1 salt (4.13 mg/kg) • Group 4: Clz (10 mg/kg) • Group 5: Clz:NA 1:1 salt (13.77 mg/kg)
The night before blood glucose levels were measured, the mice were fasted. Blood glucose levels were measured with a portable glucose meter (Contour® Plus, Bayer AG, Leverkusen, Germany) After waiting for 60 min, the treatments indicated above were administered. FIG. 75 illustrates the experimental design of this study. […]
The night before the glucose tolerance test, the mice fasted. Blood glucose levels were measured in whole blood that was collected from the mouse's tail vein. Glucose levels were measured with a portable glucose meter (Contour® Plus, Bayer AG, Leverkusen, Germany), with the measurement occurring 60 min after the mice were dosed with the treatments indicated above Immediately following the glucose measurement, all mice were subjected to a glucose tolerance test, which involved an intraperitoneal challenge injection of 1 g/kg of glucose, followed by measuring blood glucose levels at 0, 30, 60 and 120 minutes.

[3] = GTT

**Q.** Which Cmax [1] does the source give for `CN1CCN(C2=Nc3cc(Cl)ccc3Nc3ccccc32)CC1` [clozapine, reference compound] here?
**A.** 191 ng/mL

**Q.** Which “fasting blood glucose level compared to vehicle control” value ([2]; acute i.p. injection, olanzapine 5 and 10 mg/kg or salt 6.97 and 13.94 mg/kg) does the source give for `Cc1cc2c(s1)Nc1ccccc1N=C2N1CCN(C)CC1.O=C(O)c1cccnc1` [olanzapine:nicotinic acid 1:1 salt] here?
**A.** blood glucose levels comparable to those of the vehicle control group

**Q.** And the “fasting blood glucose level compared to vehicle control” value ([2]; acute oral, olanzapine 10 mg/kg, NA 3.94 mg/kg, mixture, or salt 13.94 mg/kg)?
**A.** no to moderate impacton elevated fasting blood glucose levels

**Q.** And the “Blood glucose level compared to vehicle after 120 min” value ([3]; acute oral, olanzapine 10 mg/kg)?
**A.** 1.5

**Q.** What about the “Blood glucose level compared to vehicle after 120 min” value ([3]; dosage of olanzapine 5 mg/kg (Table 23)) of the same compound?
**A.** 2.21

**Q.** And the “Blood glucose level compared to vehicle after 120 min” value ([3]; dosage of olanzapine 10 mg/kg (Table 23))?
**A.** 2.75
